Assay results from US20250304645A1, “Prodrugs of GLP-1 Polypeptide and Uses Thereof” (Novo Nordisk A/S, priority 2022, published 2025).

Legend:
[1] = Oral bioavailability: exposure following oral administration of SNAC-based tablets in Beagle dogs; details: dog, in vivo
Description: This assay was performed to measure the oral bioavailability of a compound. The assay determined the exposure of test compound following oral administration in Beagle dogs as described by relevant pharmacokinetic parameters and plasma concentration curves. […] The test compound was spray-dried as neutral sodium salt (pH 7-8). Dry granulation was carried out by roller compaction on a […]. […] Determination of the absorption following oral administration: eight (8) male Beagle dogs, 1 to 5 years of age and weighing approximately 10-12 kg at the start of the studies, were used. The dogs were group-housed in pens (12 hours light:12 hours dark), and fed individually and restrictedly once daily with Royal Canin Medium Adult dog (Royal Canin Products, China Branch, or Brogaarden A/S, Denmark). Exercise and group social were permitted daily, whenever possible. The dogs were used for repeated pharmacokinetic studies with a suitable wash-out period between successive dosing. An appropriate acclimatisation period was given prior to initiation of the first pharmacokinetic study. All handling, dosing and blood sampling of the animals were performed by trained and skilled staff. […] Bioanalysis was carried out as follows: plasma concentrations of test compound were assayed by plasma protein precipitation and analysed by liquid chromatography-mass spectrometry (LC-MS). […]

[2] = Prodrug to drug conversion half-life in vitro in PBS at pH 7.4 and 37° C. (UPLC-UV-MS); assay type: physicochemical; details: buffer, pH 7.4, prodrug to parent drug conversion, PBS pH 7.4, 37° C., first order T½
Description: The assay was performed to investigate the conversion half-life of prodrug to drug of the prodrugs of the invention.
Peptide stock solutions were prepared by dissolving freeze-dried powder in PBS buffer to a target of 200 μM. PBS-buffer was Dulbecco's Phosphate Buffered Saline without CaCl2 and MgCl2, gibco 14190-094 adjusted to pH=7.4. The pH of the peptide stock solutions was adjusted to 7.4 with 0.02 M HCl or 0.02M NaOH. Samples were filled in Agilent HPLC vials with fixed insert. Vials were capped to prevent evaporation. The HPLC vials were incubated at 37° C. and samples were withdrawn at different time points over a period of 2 weeks, flash frozen at −80° C., and stored at −20° C. until analysis.
Sample analysis was carried out using UPLC coupled to UV detection at 215 nm and MS (UPLC-UV-MS). One μl of sample was injected on to a Waters Acquity UPLC with a flow-through-needle injection system and on to a Waters Acquity CSH C18 column (1*150 mm), with a particle size of 1.7 μm and held at 55° C. A flow-rate of 100 μl/min was delivered with a Binary solvent manager pump having 0.1% formic acid in water as solvent A and 0.1% formic acid in acetonitrile as solvent B. Gradient elution was carried out using 15-32% B from 0 to 4 min followed by 32 to 48% B from 4 to 54 min. […]

- AUC/Dose [1]: 1.6 kg·h/L
- Cmax/Dose [1]: 0.10 kg/L
- half-life [2]: 2.5 days
Compound: CCCCCCCCCCCCCCCCCC(=O)NCCCC[C@@H](N)C(=O)N(C)CC(=O)N[C@@H](Cc1c[nH]cn1)C(=O)NC(C)(C)C(=O)N[C@@H](CCC(=O)O)C(=O)NCC(=O)N[C@H](C(=O)N[C@@H](Cc1ccccc1)C(=O)N[C@H](C(=O)N[C@@H](CO)C(=O)N[C@@H](CC(=O)O)C(=O)N[C@H](C(=O)N[C@@H](CO)C(=O)N[C@@H](CO)C(=O)N[C@@H](Cc1ccc(O)cc1)C(=O)N[C@@H](CC(C)C)C(=O)N[C@@H](CCC(=O)O)C(=O)NCC(=O)N[C@@H](CCC(N)=O)C(=O)N[C@@H](C)C(=O)N[C@@H](C)C(=O)N[C@@H](CCCCNC(=O)COCCOCCNC(=O)COCCOCCNC(=O)CC[C@H](NC(=O)CCCCCCCCCCCCCCCCC(=O)O)C(=O)O)C(=O)N[C@@H](CCC(=O)O)C(=O)N[C@@H](Cc1ccccc1)C(=O)N[C@H](C(=O)N[C@@H](C)C(=O)N[C@@H](Cc1c[nH]c2ccccc12)C(=O)N[C@@H](CC(C)C)C(=O)N[C@H](C(=O)N[C@@H](CCCNC(=N)N)C(=O)NCC(=O)N[C@@H](CCCNC(=N)N)C(=O)NCC(=O)O)C(C)C)[C@@H](C)CC)C(C)C)[C@@H](C)O)[C@@H](C)O [Chem. 36, N{ε^26}-[2-[2-[2-[[2-[2-[2-[[(4S)-4-carboxy-4-(17-carboxyheptadecanoylamino)butanoyl]amino]ethoxy]ethoxy]acetyl]amino]ethoxy]ethoxy]acetyl]-N{ε}-(octadecanoyl)D-Lys-Sar-[Aib8,Arg34]-GLP-1-(7-37)-peptide]
